SMILES strings stand for the structures.

The IC50 is the midpoint of a concentration-inhibition curve.

In this test the test system is JAK1-dependent STAT6 phosphorylation downstream of IL-13 stimulation in BEAS-2B cells.
In turn, `CN1CCN(C(=O)Cn2cc(Nc3nc4c(N5C[C@H]6CC[C@@H](C5)[C@H]6N(C)C(=O)CC(F)(F)F)cccn4n3)cn2)CC1` [Example 164, 3,3,3-trifluoro-N-methyl-N-[rac-(1S,5R)-3-[2-[[1-[2-(4-methylpiperazin-1-yl)-2-oxo-ethyl]pyrazol-4-yl]amino]-[1,2,4]triazolo[1,5-a]pyridin-8-yl]-3-azabicyclo[3.2.1]octan-8-yl]propanamide] gave an IC50 of 66.1 nM.

Compound `CN1CCN(C(=O)Cn2cc(Nc3nc4c(N5CC6CCC(C5)N6S(=O)(=O)Cc5cccc(Cl)c5)cccn4n3)cn2)CC1` [Example 165, 2-[4-[[8-[8-[(3-chlorophenyl)methylsulfonyl]-3,8-diazabicyclo[3.2.1]octan-3-yl]-[1,2,4]triazolo[1,5-a]pyridin-2-yl]amino]pyrazol-1-yl]-1-(4-methylpiperazin-1-yl)ethanone] displayed an IC50 of 38.2 nM. To `CN1CCN(C(=O)Cn2cc(Nc3nc4c(N5CC6CCC(C5)N6S(=O)(=O)Cc5ccc(Cl)cc5)cccn4n3)cn2)CC1` [Example 166, 2-[4-[[8-[8-[(4-chlorophenyl)methylsulfonyl]-3,8-diazabicyclo[3.2.1]octan-3-yl]-[1,2,4]triazolo[1,5-a]pyridin-2-yl]amino]pyrazol-1-yl]-1-(4-methylpiperazin-1-yl)ethanone] belongs 83.5 nM. To `CN1CCN(C(=O)Cn2cc(Nc3nc4c(N5CC6CCC(C5)N6S(=O)(=O)Cc5ccccc5C(F)(F)F)cccn4n3)cn2)CC1` [Example 167, 1-(4-methylpiperazin-1-yl)-2-[4-[[8-[8-([2-(trifluoromethyl)phenyl]methylsulfonyl]-3,8-diazabicyclo[3.2.1]octan-3-yl]-[1,2,4]triazolo[1,5-a]pyridin-2-yl]amino]pyrazol-1-yl]ethanone] belongs 172 nM; to `CN1CCN(C(=O)Cn2cc(Nc3nc4c(N5CC6CCC(C5)N6S(=O)(=O)Cc5ccc(C#N)cc5)cccn4n3)cn2)CC1` [Example 168, 4-[[3-[2-[[1-[2-(4-methylpiperazin-1-yl)-2-oxo-ethyl]pyrazo1-4-yl]amino]-[1,2,4]triazolo[1,5-a]pyridin-8-yl]-3,8-diazabicyclo[3.2.1]octan-8-yl]sulfonylmethyl]-benzonitrile], 226 nM; to `CSc1cccc(S(=O)(=O)N2C3CCC2CN(c2cccn4nc(Nc5cnn(CC(=O)N6CCN(C)CC6)c5)nc24)C3)c1` [Example 169, 1-(4-methylpiperazin-1-yl)-2-[4-[[8-[8-(3-methylsulfanylphenyl)sulfonyl-3,8-diazabicyclo[3.2.1]octan-3-yl]-[1,2,4]triazolo[1,5-a]pyridin-2-yl]amino]pyrazol-1-yl]ethanone], 31.2 nM. Regarding `CN1CCN(C(=O)Cn2cc(Nc3nc4c(N5CC6CCC(C5)N6C(=O)N5CC(F)C5)cccn4n3)cn2)CC1` [Example 170, 2-[4-[[8-[8-(3-fluoroazetidine-1-carbonyl)-3,8-diazabicyclo[3.2.1]octan-3-yl]-[1,2,4]triazolo[1,5-a]pyridin-2-yl]amino]pyrazol-1-yl]-1-(4-methylpiperazin-1-yl)ethanone], half-maximal inhibition (IC50) was put at 14.1 nM. Then `CSC1CN(C(=O)N2C3CCC2CN(c2cccn4nc(Nc5cnn(CC(=O)N6CCN(C)CC6)c5)nc24)C3)C1` [Example 171, 1-(4-methylpiperazin-1-yl)-2-[4-[[8-[8-(3-methylsulfanylazetidine-1-carbonyl)-3,8-diazabicyclo[3.2.1]octan-3-yl]-[1,2,4]triazolo[1,5-a]pyridin-2-yl]amino]pyrazol-1-yl]ethanone], with 238 nM; and `CSC1CCN(C(=O)N2C3CCC2CN(c2cccn4nc(Nc5cnn(CC(=O)N6CCN(C)CC6)c5)nc24)C3)C1` (stereo not drawn) [Example 172, 1-(4-methylpiperazin-1-yl)-2-[4-[[8-[8-(3-methylsulfanylpyrrolidine-1-carbonyl)-3,8-diazabicyclo[3.2.1]octan-3-yl]-[1,2,4]triazolo[1,5-a]pyridin-2-yl]amino]pyrazol-1-yl]ethanone], with 25.8 nM.
